# Yeast mating assay B: variants of the scFv Ab-14

Reference: Li et al. 2023, doi:10.1038/s41467-023-39022-2. File: FLAb, binding data.

Antigen: PDVDLGDISGINAS, a 14-residue peptide of the SARS-CoV-2 spike HR2 region.

Parent scFv Ab-14: VH joined to VL by a (GGGGS)3 linker. Changes lie in the heavy chain CDRs alone.
VH: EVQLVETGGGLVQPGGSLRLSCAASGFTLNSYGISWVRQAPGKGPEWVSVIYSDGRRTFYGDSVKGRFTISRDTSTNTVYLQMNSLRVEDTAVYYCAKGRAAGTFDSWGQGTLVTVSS
VL: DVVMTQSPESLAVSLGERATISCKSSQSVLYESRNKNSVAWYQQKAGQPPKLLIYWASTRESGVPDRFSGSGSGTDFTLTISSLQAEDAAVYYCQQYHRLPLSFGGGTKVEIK

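The starting antibody came from a phage panning campaign against this peptide. The variants were designed computationally from a first round of random CDR variants and then made and measured. Group labels follow the data file (Ctrl: baseline library sampled from a position-specific scoring matrix, with some repeated check sequences; GPLM: also part of the Gaussian process libraries; HC: hill climbing; a sequence that several methods proposed may carry one label only). In AlphaSeq, yeast of one mating type display the scFv and yeast of the other type display the target. Mating (16 h, 30 °C) was followed by selection of diploids and sequencing of their barcodes. The ratio of observed to expected reads was calibrated, replicate by replicate, on BCL2-family standards whose Kd was known from biolayer interferometry. Mating was done six times.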

Changes read parent residue, position, new residue, counted from the first residue of the VH shown.
Numbers give log10(Kd / nM), so 0 is 1 nM and 3 is 1 µM. Smaller is tighter.
Where no diploid with the target was found in that replicate, the entry reads "nd": below detection, most likely a poor binder, though not proof of it.
In the paper, a design with two or fewer of six values counts as a poor binder.
A sequence measured in both rounds can read differently, since the two assays cover different ranges.
Background: pairings of all heavy chain designs with three empty control strains gave a value in 1% of cases (median 2.08, 5th percentile 0.84). Values in that range, when seen in few replicates, are hard to tell from nonspecific mating. For each scFv, signals with the empty controls are counted beside the result.
The parent sequence was in this pool as ten entries: three were never detected, three once, and four in most replicates, with averages from 0.34 to 2.37.
Where one sequence has several entries in the source, the replicates are listed entry by entry, parted by semicolons.

For F27N/S63N [Ctrl], the assay gave nd, 2.48, 2.45, nd, 2.58, nd (controls 1 of 18).
For T28D/G61Q [Ctrl], the assay gave 0.78, 0.22, 0.47, 0.11, 0.26, 0.31 (controls 0 of 18).
For G26D/I34G/F59I/G61L/S107L [Ctrl], the assay gave nd, nd, nd, nd, nd, nd (controls 0 of 18).
For T28R/N30H/R56Y/G61S/T104Q/F105N [Ctrl], the assay gave nd, 0.67, nd, nd, nd, nd (controls 0 of 18).
For S31E/G61S/G103D [Ctrl], the assay gave nd, nd, nd, nd, nd, nd (controls 1 of 18).
For G61K/D106P [Ctrl], the assay gave nd, nd, nd, 1.47, 0.39, nd (controls 0 of 18).
For S31N/S53A/R100D/A102P [Ctrl], the assay gave nd, nd, nd, -0.27, nd, nd (controls 0 of 18).
For S31K/F59S/G61A [Ctrl], the assay gave 0.96, nd, 3.20, 3.28, 1.83, nd (controls 0 of 18).
For S31D/F59G/G61D/V64P/D106F [Ctrl], the assay gave nd, nd, nd, nd, nd, nd (controls 0 of 18).
For T28G/R100T/S107D [Ctrl], the assay gave 1.18, 0.98, 1.90, 0.98, nd, nd (controls 0 of 18).
For L29I/N30G/S31E/F59M/G99E [Ctrl], the assay gave nd, 2.57, nd, nd, nd, nd (controls 1 of 18).
For R56Q/A101Y [Ctrl], the assay gave nd, nd, nd, nd, nd, nd (controls 0 of 18).
For F27T/G61H/V64T/D106F [Ctrl], the assay gave nd, nd, nd, nd, nd, nd (controls 0 of 18).
For S31E/I51D/F59A/R100D/A101M [Ctrl], the assay gave nd, nd, nd, nd, nd, nd (controls 0 of 18).
For S31K/F59W/A102G/G103L [Ctrl], the assay gave nd, nd, nd, nd, nd, nd (controls 0 of 18).
For S31D/A101I/D106E [Ctrl+GPLM_HC], the assay gave 0.33, 0.38, 0.32, 0.67, 0.31, 0.38; nd, nd, nd, nd, nd, nd (controls 0 of 36).
For G61L/S63A/G103Q/D106W [Ctrl], the assay gave nd, nd, nd, nd, nd, nd (controls 1 of 18).
For F59M/G61E/G99N/T104L/D106K [Ctrl], the assay gave nd, nd, nd, nd, nd, nd (controls 0 of 18).
For N30D/S31E/R100Y [Ctrl], the assay gave nd, 1.84, 0.79, 0.29, nd, 0.73 (controls 0 of 18).
For S63A/V64L [Ctrl], the assay gave nd, nd, nd, nd, nd, nd (controls 0 of 18).
For N30E/S31N/F59A/S63A [Ctrl], the assay gave 0.73, 0.65, 0.32, 0.30, 0.16, 1.14 (controls 0 of 18).
For I34G/T104N [Ctrl], the assay gave nd, nd, nd, nd, nd, nd (controls 0 of 18).
For N30M/R100Y/A101E/A102K/G103I/T104S [Ctrl], the assay gave nd, nd, nd, nd, nd, nd (controls 0 of 18).
For D54L/G103L [Ctrl], the assay gave nd, nd, nd, nd, nd, nd (controls 0 of 18).
For V64D/F105G/D106H [Ctrl], the assay gave nd, nd, nd, nd, nd, nd (controls 0 of 18).
For T28S/S107W [Ctrl], the assay gave 1.02, 0.03, 0.07, 0.38, 0.38, 0.84 (controls 0 of 18).
For T28W/N30E/S31E/R56W/G61E/R100T/A101E [Ctrl], the assay gave 1.38, 1.03, 0.58, 1.04, 1.25, 0.73 (controls 0 of 18).
For S31E/R56K/K65R/A101V [Ctrl], the assay gave 0.20, 0.07, -0.04, 0.00, 0.08, 0.33 (controls 3 of 18).
For R100E/A101N [Ctrl], the assay gave 1.73, nd, 1.63, nd, 1.21, 1.60 (controls 0 of 18).
For N30D/F59I [Ctrl], the assay gave nd, nd, nd, nd, nd, nd (controls 0 of 18).
For T28S/G61D/S63K [Ctrl], the assay gave 0.95, 0.46, 0.64, 0.55, 0.42, 1.08 (controls 0 of 18).
For T28N/F59A/A101E [Ctrl], the assay gave -0.01, 0.42, 0.33, 0.35, -0.02, 0.02 (controls 0 of 18).
For S35H/R100D [Ctrl], the assay gave 0.40, 0.79, 0.97, 0.65, 0.88, 0.99 (controls 0 of 18).
For F27E/V64F/K65S/G99V/A101P/D106E [Ctrl], the assay gave nd, nd, nd, nd, nd, nd (controls 0 of 18).
For S31E/R56M/G61S/S63A/R100V [Ctrl], the assay gave 0.44, 0.57, 0.52, 0.26, 0.28, 0.77 (controls 0 of 18).
For T104C [Ctrl], the assay gave nd, nd, nd, nd, nd, nd (controls 0 of 18).
For S31D/G61A/A101N/A102P [Ctrl], the assay gave 0.80, 0.41, 0.20, 0.29, 0.66, 0.51 (controls 1 of 18).
For F59S/G61I/A101V/A102Q/S107P [Ctrl], the assay gave nd, nd, nd, nd, nd, nd (controls 0 of 18).
For G26L/N30T/R56E/R100E [Ctrl], the assay gave nd, nd, nd, nd, nd, nd (controls 1 of 18).
For R100T/A101L [Ctrl], the assay gave 0.96, 0.24, 0.35, 0.67, 0.27, 0.99 (controls 1 of 18).
For N30G/T58A [Ctrl], the assay gave nd, nd, nd, nd, nd, nd (controls 0 of 18).
For G99C [Ctrl], the assay gave nd, nd, nd, nd, nd, nd (controls 0 of 18).
For R56Q/S63D [Ctrl], the assay gave nd, 1.85, 3.46, nd, nd, 2.70 (controls 0 of 18).
For G26L/F59S/R100K [Ctrl], the assay gave nd, nd, nd, nd, nd, nd (controls 1 of 18).

From the list, the first 3 with no signal in any replicate:

For G26D/I34G/F59I/G61L/S107L [Ctrl], the assay gave nd, nd, nd, nd, nd, nd (controls 0 of 18).
For S31E/G61S/G103D [Ctrl], the assay gave nd, nd, nd, nd, nd, nd (controls 1 of 18).
For S31D/F59G/G61D/V64P/D106F [Ctrl], the assay gave nd, nd, nd, nd, nd, nd (controls 0 of 18).